In ChEMBL document CHEMBL5346864, “Identification of L. infantum trypanothione synthetase inhibitors with leishmanicidal activity from a (non-biased) in-house chemical library” (Eur J Med Chem, 2022):

Columns and labels:
Leishmania infantum [1] = settings: MCAN/ES/89/IPZ229/1/89, dose 4.8 µM, time 30.0 min
Leishmania infantum [2] = settings: MCAN/ES/89/IPZ229/1/89, dose 5.8 µM, time 30.0 min
Leishmania infantum [3] = settings: MCAN/ES/89/IPZ229/1/89, dose 8.3 µM, time 30.0 min
Leishmania infantum [4] = settings: MCAN/ES/89/IPZ229/1/89, dose 4.0 µM, time 30.0 min
Leishmania infantum [5] = settings: MCAN/ES/89/IPZ229/1/89, dose 6.9 µM, time 30.0 min

Work on CCCCCCCCCCCCCCOc1ccc(C[N+](C)(C)C2CCCC2)cc1OC yielded a Km (Leishmania infantum [1]) of 68.9 µM, a Km (Leishmania infantum [2]) of 76.1 µM and a Km (Leishmania infantum [3]) of 312 µM. The Km (Leishmania infantum [4]) was 49.8 µM and the Km (Leishmania infantum [5]) was 66.1 µM.
